Earlier results, collected in publication PMC4303307 (Biochemistry, 2014).

Molecular target: T1, human γD-crystallin (HGD) (Homo sapiens, UniProt P07320)
T1 sequence (P07320 1-174): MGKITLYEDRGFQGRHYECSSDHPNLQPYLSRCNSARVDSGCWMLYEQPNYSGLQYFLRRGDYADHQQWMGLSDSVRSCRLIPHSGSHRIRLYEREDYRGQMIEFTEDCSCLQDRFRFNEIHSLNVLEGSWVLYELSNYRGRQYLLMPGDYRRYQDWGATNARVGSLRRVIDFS
Settings: incubated at 55 °C for 16 h; cited from earlier work

B1: human αA-crystallin: parent protein of MAC; small heat-shock protein of the lens (protein, UniProt P02489 1-173, looked up)
Alpha-crystallin A chain: MDVTIQHPWFKRTLGPFYPSRLFDQFFGEGLFEYDLLPFLSSTISPYYRQSLFRTVLDSGISEVRSDRDKFVIFLDVKHFSPEDLTVKVQDDFVEIHGKHNERQDDHGYISREFHRRYRLPSNVDQSALSCSLSADGMLTFCGPKIQTGLDATHAERAIPVSREEKPTSAPSS
Q: Which “HGD bound to human αA-crystallin” value does the source give for B1 here?
A: ≤ 20%
